Values of other authors in article PMC10308680 (Journal of Biomedical Science, 2023).

Settings: in vivo; cited from earlier work

In the case of abatacept, the side effects is listed as “causing side effects”.
